Data reported in article PMC2760454 (Biochemistry, 2008).

Amino acid sequences for entries named in this document (tags omitted). Residues count along the entry.
UniProt P40495, 23-371: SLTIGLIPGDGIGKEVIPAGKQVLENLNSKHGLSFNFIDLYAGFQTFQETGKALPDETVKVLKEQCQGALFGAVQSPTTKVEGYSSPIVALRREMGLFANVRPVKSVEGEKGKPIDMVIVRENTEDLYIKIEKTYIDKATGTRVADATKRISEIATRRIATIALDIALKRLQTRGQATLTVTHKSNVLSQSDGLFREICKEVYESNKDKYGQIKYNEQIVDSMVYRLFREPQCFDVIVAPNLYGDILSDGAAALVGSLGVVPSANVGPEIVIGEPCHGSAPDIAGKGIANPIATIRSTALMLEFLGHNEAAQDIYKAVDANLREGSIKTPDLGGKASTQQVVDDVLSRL

Experiments:
[1] = target: T1, homoisocitrate dehydrogenase (HIcDH) (Saccharomyces cerevisiae, UniProt P40495); assay: HIcDH initial velocity studies; assay type: biochemical; conditions: in the absence of K+
[2] = target: T1, homoisocitrate dehydrogenase (HIcDH); conditions: as slow substrate, in the presence of K+; cited from earlier work

Structure (SMILES): O=C(O)CC(C(=O)O)C(O)C(=O)O (centres unmarked) [isocitrate]
- reaction rate as reactant [1]: not detectable
- rate, fold lower than the rate with HIc [2]: 200 fold
